Apparent affinities of Ab-14 variants for a coronavirus HR2 peptide

Data: MIT Lincoln Laboratory AlphaSeq set, Li et al. 2023, doi:10.1038/s41467-023-39022-2, as distributed in FLAb.

Target: peptide PDVDLGDISGINAS, taken from heptad repeat 2 (HR2) of SARS-CoV-2 spike.

Each scFv is VH, a (GGGGS)3 linker, VL, as in the parent Ab-14, and differs from it in the CDRs of the light chain only.
VH: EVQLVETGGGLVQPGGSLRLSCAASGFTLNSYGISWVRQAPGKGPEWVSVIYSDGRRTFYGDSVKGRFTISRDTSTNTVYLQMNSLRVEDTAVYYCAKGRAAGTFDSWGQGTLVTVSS
VL: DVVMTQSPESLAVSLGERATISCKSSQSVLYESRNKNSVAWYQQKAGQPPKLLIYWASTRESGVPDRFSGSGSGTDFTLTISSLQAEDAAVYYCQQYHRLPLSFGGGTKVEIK

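The starting antibody came from a phage panning campaign against this peptide. The variants were designed computationally from a first round of random CDR variants and then made and measured. Several design methods are mixed in this list. The scFvs were displayed on barcoded MATa yeast, the peptide on MATalpha yeast. After mating in shaken culture at 30 °C for 16 h, diploids were selected and their barcode pairs sequenced. Each replicate has its own calibration line, from reference interactions of the BCL2 family. The assay was run in six technical replicates.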

Sequences are complete VL domains. Numbers give log10(Kd / nM), so 0 is 1 nM and 3 is 1 µM. Smaller is tighter. An entry "n.d." has no value in the source: the pair was not observed among the diploids in that replicate. This suggests poor binding but is not conclusive. As a blank, each scFv also met three strains without target: over all light chain designs, 4% of these pairings were detected, typically at 2.64 and seldom below 1.59. The parent sequence was in this pool as ten entries: three were never detected, three once, and four in most replicates, with averages from 0.34 to 2.37. Values of this round are not directly comparable with the first-round values of the same sequences. In the paper, a design with two or fewer of six values counts as a poor binder.

{"VL": "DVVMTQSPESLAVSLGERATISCSVHFMGTTGEQNRESIAWYQQKAGQPPKLLIYENSIRVEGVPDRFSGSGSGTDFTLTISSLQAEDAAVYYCQQYSHLPLLFGGGTKVEIK", "log10 Kd, replicates": "1.80 1.48 1.70 1.55 1.55 2.08"}
{"VL": "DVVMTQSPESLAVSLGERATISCKSSQSVLEESRNMNSVAWYQQKAGQPPKLLIYWASTRESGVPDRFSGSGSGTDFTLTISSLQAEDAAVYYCQTYHRLPFSFGGGTKVEIK", "log10 Kd, replicates": "n.d. n.d. n.d. 3.06 2.58 3.13"}
{"VL": "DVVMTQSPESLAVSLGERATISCKSSQSVSYESRNKNSVAWYQQKAGQPPKLLIYKASTRESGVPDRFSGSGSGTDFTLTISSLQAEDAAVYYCQQYHRLPLSFGGGTKVEIK", "log10 Kd, replicates": "1.32 n.d. n.d. 2.01 n.d. 2.07"}
{"VL": "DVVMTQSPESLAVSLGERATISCKLSQSELYESRMKNSVAWYQQKAGQPPKLLIYNASQRLSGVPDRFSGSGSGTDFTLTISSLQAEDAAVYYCQQYHRLPLSFGGGTKVEIK", "log10 Kd, replicates": "-0.02 -0.12 -0.02 -0.30 -0.19 0.16"}
{"VL": "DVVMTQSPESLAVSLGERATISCKIMQSLNYLQFNVSNVAWYQQKAGQPPKLLIYGQETRERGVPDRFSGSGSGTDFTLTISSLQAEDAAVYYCQSYHRLPLSFGGGTKVEIK", "log10 Kd, replicates": "1.28 n.d. n.d. 2.94 2.87 1.55"}
{"VL": "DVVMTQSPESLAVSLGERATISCKVSMSVLYESRNKNSVAWYQQKAGQPPKLLIYWASTRESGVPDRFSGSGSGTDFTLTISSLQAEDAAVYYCQQYHRLPLSFGGGTKVEIK", "log10 Kd, replicates": "n.d. 2.38 1.42 2.26 2.42 3.33"}
{"VL": "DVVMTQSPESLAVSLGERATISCKVLQSVVYEERNKNSVAWYQQKAGQPPKLLIYHASTREDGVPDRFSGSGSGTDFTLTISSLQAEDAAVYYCQQYHRLPLSFGGGTKVEIK", "log10 Kd, replicates": "-0.06 -0.05 -0.17 -0.25 -0.15 0.09"}
{"VL": "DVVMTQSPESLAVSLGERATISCKVPQSVLYEGRNKNSVAWYQQKAGQPPKLLIYHASTREDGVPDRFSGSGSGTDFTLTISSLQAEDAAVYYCQQYHRLPLSFGGGTKVEIK", "log10 Kd, replicates": "-0.15 -0.38 -0.17 -0.61 -0.46 -0.22"}
{"VL": "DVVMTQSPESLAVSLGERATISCKSSISYLYESMNKNSVAWYQQKAGQPPKLLIYNASTRESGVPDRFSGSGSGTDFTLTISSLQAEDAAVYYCQQYHRLPLSFGGGTKVEIK", "log10 Kd, replicates": "0.03 -0.17 0.06 -0.02 -0.20 0.04"}
{"VL": "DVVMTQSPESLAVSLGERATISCHITYGMYVSGRYKSNIAWYQQKAGQPPKLLIYQAETREKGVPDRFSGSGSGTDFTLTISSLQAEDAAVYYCQQYDRLPLIFGGGTKVEIK", "log10 Kd, replicates": "0.78 1.50 0.59 0.92 0.89 1.22"}
{"VL": "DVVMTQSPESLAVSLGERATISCKLPQSVLYESRNKNSVAWYQQKAGQPPKLLIYNASQRESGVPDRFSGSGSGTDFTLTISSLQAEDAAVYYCQQYHRLPLSFGGGTKVEIK", "log10 Kd, replicates": "-0.08 -0.25 -0.33 -0.36 -0.33 -0.28"}
{"VL": "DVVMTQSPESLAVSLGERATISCMVTQMAMTGMKNKRSVAWYQQKAGQPPKLLIYNATTREPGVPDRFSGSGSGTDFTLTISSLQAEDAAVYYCQQYHRLPLIFGGGTKVEIK", "log10 Kd, replicates": "1.11 0.96 0.71 0.49 1.10 1.22"}
{"VL": "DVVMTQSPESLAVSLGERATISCKLSQSVCYEQRQKNSVAWYQQKAGQPPKLLIYNASTRMSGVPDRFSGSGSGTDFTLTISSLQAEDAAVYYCQQYHRLPLSFGGGTKVEIK", "log10 Kd, replicates": "1.01 1.50 0.52 0.62 1.27 1.00"}
{"VL": "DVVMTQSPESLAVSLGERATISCKLSWSVLYESRNKNNVAWYQQKAGQPPKLLIYEASTRESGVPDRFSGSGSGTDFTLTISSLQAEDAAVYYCQQYHRLPLSFGGGTKVEIK", "log10 Kd, replicates": "-0.33 -0.57 -0.84 -0.71 -0.84 -0.57"}
{"VL": "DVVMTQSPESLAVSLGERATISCLSSISYLYESGNKNSVAWYQQKAGQPPKLLIYEASTRESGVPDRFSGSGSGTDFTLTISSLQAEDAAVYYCQQYHRLPLSFGGGTKVEIK", "log10 Kd, replicates": "n.d. 1.05 0.28 0.67 0.63 0.63"}
{"VL": "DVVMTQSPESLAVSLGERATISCKFSQSVLYESRNKNSVAWYQQKAGQPPKLLIYGASTRLSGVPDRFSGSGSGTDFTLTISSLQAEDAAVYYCQQYHRLPLSFGGGTKVEIK", "log10 Kd, replicates": "-0.01 -0.19 -0.19 -0.46 -0.46 -0.17"}
{"VL": "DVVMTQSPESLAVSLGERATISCKSSQSVLYLSSNSNSVAWYQQKAGQPPKLLIYWASTRNEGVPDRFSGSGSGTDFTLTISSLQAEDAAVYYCQQYHRLPLSFGGGTKVEIK", "log10 Kd, replicates": "1.27 1.52 1.38 n.d. 0.99 1.84"}
{"VL": "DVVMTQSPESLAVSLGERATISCHITYGMNVAGRHSSSIAWYQQKAGQPPKLLIYQAEERQKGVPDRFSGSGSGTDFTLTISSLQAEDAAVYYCQQYDRLPLSFGGGTKVEIK", "log10 Kd, replicates": "0.81 0.82 0.67 0.04 0.51 0.62"}
{"VL": "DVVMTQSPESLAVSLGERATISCKSMISVLYESLNKNSVAWYQQKAGQPPKLLIYGASTREEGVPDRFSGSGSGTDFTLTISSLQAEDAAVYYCQQYHRLCLSFGGGTKVEIK", "log10 Kd, replicates": "n.d. 1.98 n.d. n.d. 3.26 1.46"}
{"VL": "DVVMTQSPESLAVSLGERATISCKLGSMVLLEHGNINSIAWYQQKAGQPPKLLIYQQSTREEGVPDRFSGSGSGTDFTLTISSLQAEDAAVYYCQQYDRLPLSFGGGTKVEIK", "log10 Kd, replicates": "0.33 0.53 0.52 0.59 0.52 0.50"}
{"VL": "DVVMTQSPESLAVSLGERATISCKIGMTLNQLLHQKSNVAWYQQKAGQPPKLLIYDLVMRENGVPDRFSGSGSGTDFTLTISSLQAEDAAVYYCQQYHRLPLSFGGGTKVEIK", "log10 Kd, replicates": "0.62 0.52 0.33 0.26 0.43 0.56"}
{"VL": "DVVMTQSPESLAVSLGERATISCKSPQSHLYGSRNKNSVAWYQQKAGQPPKLLIYEASERESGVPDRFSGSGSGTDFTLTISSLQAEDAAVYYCQQYHRLPLSFGGGTKVEIK", "log10 Kd, replicates": "0.84 0.41 0.57 0.34 0.36 0.65"}
{"VL": "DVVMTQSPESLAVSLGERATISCKSSQSVLTEGRNKNSVAWYQQKAGQPPKLLIYNASTRESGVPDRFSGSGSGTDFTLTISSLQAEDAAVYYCQQYHRLPLSFGGGTKVEIK", "log10 Kd, replicates": "0.65 0.49 0.28 0.47 0.59 0.75"}
{"VL": "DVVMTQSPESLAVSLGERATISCTISQMSTLFSQSIQNVAWYQQKAGQPPKLLIYEVSTRLNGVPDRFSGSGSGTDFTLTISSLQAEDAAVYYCQQYDRLPLMFGGGTKVEIK", "log10 Kd, replicates": "1.16 0.95 0.48 0.64 0.74 0.82"}
{"VL": "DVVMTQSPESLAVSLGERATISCKSSGSLLYESTNQNSVAWYQQKAGQPPKLLIYDASTRESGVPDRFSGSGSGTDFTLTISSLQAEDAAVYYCQQYHRLPLSFGGGTKVEIK", "log10 Kd, replicates": "0.27 0.12 0.06 -0.10 0.04 0.24"}